Values of other authors in patent US4582827A, “Pesticidal diphenylaziridines” (priority 1983, dated 1986).

Test system: mammals
Details: cited from earlier work

Question: Which “toxicity reported in the literature” value does the source give for `C1CN1` here?
Answer: Its value is “highly toxic and hazardous”.
